The text below walks through data of publication PMC7723054.

Common to all, as to test: FOREST: bead pull-down of RNA structure library v1, barcode microarray; U1A/LIN28A: 20 mM HEPES pH 7.5, 80 mM KCl, 20 mM NaCl, 10% glycerol, 2 mM DTT, 0.1 ug/uL BSA, 4 C; BG4/CIRBP/DHX36: 10 mM Tris-HCl pH 7.5, 100 mM KCl (or LiCl),; high values mean tight binding
The target of one assay is U1A (Homo sapiens, UniProt P09012).
The next assay has as its target T1, LIN28A (human?, UniProt Q9H9Z2 1-209).
T1 sequence: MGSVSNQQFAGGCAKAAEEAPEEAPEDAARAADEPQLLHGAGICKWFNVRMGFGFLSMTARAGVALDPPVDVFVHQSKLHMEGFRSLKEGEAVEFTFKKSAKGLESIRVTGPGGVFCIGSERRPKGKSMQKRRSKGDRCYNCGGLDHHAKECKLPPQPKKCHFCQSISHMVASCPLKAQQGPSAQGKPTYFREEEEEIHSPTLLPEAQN

The next assay addresses T2, CIRBP (Homo sapiens, UniProt Q14011 1-172).
T2 sequence: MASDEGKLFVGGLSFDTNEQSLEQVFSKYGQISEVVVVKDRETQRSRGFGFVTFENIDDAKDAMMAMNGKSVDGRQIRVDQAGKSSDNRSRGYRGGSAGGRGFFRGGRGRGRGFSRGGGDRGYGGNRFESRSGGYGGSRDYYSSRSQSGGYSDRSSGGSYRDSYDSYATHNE

The target of a further assay is T3, DHX36 (Homo sapiens, UniProt Q9H2U1 1-1008).
T3 sequence: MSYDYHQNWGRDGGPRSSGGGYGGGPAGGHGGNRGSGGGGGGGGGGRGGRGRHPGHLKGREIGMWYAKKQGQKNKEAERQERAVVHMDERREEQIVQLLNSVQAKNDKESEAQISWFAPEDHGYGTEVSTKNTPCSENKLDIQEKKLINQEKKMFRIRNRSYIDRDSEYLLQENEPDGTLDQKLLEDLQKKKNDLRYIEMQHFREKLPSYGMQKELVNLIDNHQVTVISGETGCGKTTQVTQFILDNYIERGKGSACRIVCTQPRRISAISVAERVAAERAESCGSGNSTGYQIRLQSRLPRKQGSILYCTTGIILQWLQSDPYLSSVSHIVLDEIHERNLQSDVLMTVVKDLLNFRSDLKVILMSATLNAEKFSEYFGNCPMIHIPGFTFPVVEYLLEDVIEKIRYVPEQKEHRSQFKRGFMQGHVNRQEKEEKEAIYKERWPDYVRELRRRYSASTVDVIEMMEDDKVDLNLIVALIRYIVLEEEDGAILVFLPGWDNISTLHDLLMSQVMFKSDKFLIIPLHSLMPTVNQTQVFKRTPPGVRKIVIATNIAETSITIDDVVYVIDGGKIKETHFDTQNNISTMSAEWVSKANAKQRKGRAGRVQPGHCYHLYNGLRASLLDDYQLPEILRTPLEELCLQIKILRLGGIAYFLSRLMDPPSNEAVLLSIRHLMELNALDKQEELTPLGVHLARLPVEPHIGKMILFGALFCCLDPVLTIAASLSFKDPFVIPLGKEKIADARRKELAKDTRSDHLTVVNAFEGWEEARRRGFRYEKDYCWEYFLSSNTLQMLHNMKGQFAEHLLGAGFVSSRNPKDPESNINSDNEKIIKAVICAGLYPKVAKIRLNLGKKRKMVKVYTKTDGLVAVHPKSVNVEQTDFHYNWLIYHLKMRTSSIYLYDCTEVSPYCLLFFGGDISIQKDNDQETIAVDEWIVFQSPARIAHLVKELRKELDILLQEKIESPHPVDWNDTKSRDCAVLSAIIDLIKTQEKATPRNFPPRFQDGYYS

Some of the results follow.

B1: hsa-mir-4749 (structured_RNA)
RNA: GGGAACAGCUAUCUGAGACUAAUACGGUGGUGUACGAAGUUUCAGCGGCAUCUAGGCUGUGCACAGUGACGCCGCUGAAGCUUCGUGCAC
As for B1, the binding signal was 0.119 z-score in the assay with U1A, -0.547 z-score with LIN28A, -0.5 z-score in the assay with CIRBP and -1.33 z-score with DHX36.

B2: hsa-mir-6735 (structured_RNA)
RNA: GGGACUGCAACAACGGGAACAUGUGGUCGGUGUACGAAGUUUCAGCAUCUGAGGUGACUGGCACAGAAGACUCAGGGCUGAAGCUUCGUGCAC
For the molecule B2, the binding signal with U1A was 1.79 z-score; with LIN28A, 0.482 z-score; with CIRBP, 0.911 z-score; in the assay with DHX36 it was -0.336 z-score.

B3: hsa-mir-4252 (structured_RNA)
RNA: GGGAAAAGGGGUAUUAGAAGGGCGCUUAGGUGUACGAAGUUUCAGCGGCCAUCUGGCCGCUGAAGCUUCGUGCAC
As to B3, the binding signal is 0.117 z-score with U1A, -0.169 z-score with LIN28A, 0.401 z-score with CIRBP and 0.294 z-score with DHX36.

B4: hsa-mir-5197 (structured_RNA)
RNA: GGGAAAGCUGGUAGGCCGAACUCGCAAAGGUGUACGAAGUUUCAGCUCUUGAAUUUUUGCCAGUUCAAGAGCUGAAGCUUCGUGCAC
In the case of B4, the binding signal in the assay with U1A is 0.121 z-score; in the assay with LIN28A, -0.769 z-score; in the assay with CIRBP it was 0.518 z-score; with DHX36, -0.498 z-score.

B5: PARIS_ID2 (structured_RNA)
RNA: GGGAAGGCAAGCGUUUUAUCAAUCCAGCGGUGUACGAAGUUUCAGCGGGUCCAAGACAUAUAAUCAUGUAUAAUUUUGUCAAGGUAUAAUUUUUUAAAUUGCUUUUGUCAUGUGUCUGCUGGUGAUGCCCGCUGAAGCUUCGUGCAC
On to B5, for which the binding signal is 0.122 z-score with U1A, 0.784 z-score in the assay with LIN28A, -1.81 z-score in the assay with CIRBP and -0.0451 z-score in the assay with DHX36.

B6: hsa-mir-6506 (structured_RNA)
RNA: GGGACCAGACGUGGAUGAAAUGGCCUUCGGUGUACGAAGUUUCAGCAUGGUGUUUGUGAGUUGAUUGACAUCGUGCUGAAGCUUCGUGCAC
B6: the binding signal with U1A is 0.116 z-score; with LIN28A it was 0.276 z-score; with CIRBP, -0.544 z-score; with DHX36, 0.217 z-score.

B7: hsa-mir-4310 (structured_RNA)
RNA: GGGACCGAACCGCUGUUGACGAAACCAUGGUGUACGAAGUUUCAGCCUGCAGAACAUUGCAGGCUGAAGCUUCGUGCAC
As for B7, the binding signal with U1A was 0.116 z-score; with LIN28A it was -0.489 z-score; with CIRBP it was 0.527 z-score; with DHX36, 0.068 z-score.

B8: hsa-mir-6864 (structured_RNA)
RNA: GGGAAACUCGGCGUGUGAACUCCAGAAUGGUGUACGAAGUUUCAGCGAUAUGCCAUUAUGUGGGUCAUGAGGUGGUGAGCUGAAGCUUCGUGCAC
Consider B8, for which the binding signal with U1A is 0.12 z-score; with LIN28A, 0.268 z-score; with CIRBP, 0.315 z-score; with DHX36, -0.041 z-score.

B9: hsa-mir-1238 (structured_RNA)
RNA: GGGAGAGAUAACAGAAAGAGUGCCCAAGGGUGUACGAAGUUUCAGCUGUGGUUGGGGCCAUGGCGGGUGGGCAGCCCAGCCUCUGAGCCUUCCUGCUGAAGCUUCGUGCAC
In the case of B9, the binding signal was 0.116 z-score in the assay with U1A, 0.519 z-score in the assay with LIN28A, 0.335 z-score with CIRBP and 1.96 z-score with DHX36.

B10: hsa-mir-744 (structured_RNA)
RNA: GGGACUAUUAGGGUAACCAUCGGCACGUGGUGUACGAAGUUUCAGCACAGCAGUCUUACUGAAGGUUUCCUGGAAACCACGCACAUGCUGUGCUGAAGCUUCGUGCAC
In the case of B10, the binding signal with U1A is 3.42 z-score; with LIN28A, 0.621 z-score; with CIRBP, 0.628 z-score; with DHX36, 1.5 z-score.

B11: hsa-mir-4476 (structured_RNA)
RNA: GGGAACUCGUUGGGCCGAAAACCUUUUAGGUGUACGAAGUUUCAGCCCCAGCCUUCCAGAGUUGGUGCCAGGGCUGAAGCUUCGUGCAC
For the molecule B11, the binding signal with U1A is 0.122 z-score; in the assay with LIN28A, -1.31 z-score; with CIRBP, -0.112 z-score; in the assay with DHX36 it was 0.293 z-score.
